{
  "source": "paper PMC4993559",
  "about": "(Journal of Experimental Pharmacology, 2016)",
  "assay_in_all_cases": "HotSpot radioisotope filter-binding kinase assay",
  "type_in_all_cases": "biochemical",
  "key": {"FLT3": {"target": "FLT3 (Homo sapiens, UniProt P36888)"}, "FLT3 (ITD)": {"target": "FLT3 (ITD) (Homo sapiens, UniProt P36888, ITD)"}, "FLT3 (D835Y)": {"target": "FLT3 (D835Y) (Homo sapiens, UniProt P36888, D835Y)"}, "[1]": {"conditions": "IC50, recombinant kinase, 10 μM ATP"}},
  "note": "Where “and” joins values, the source holds several entries; their conditions need not be identical. Equal values may be shown once.",
  "data": [
    {"smiles": "C1=C/COCc2cc(ccc2OCCN2CCCC2)Nc2nccc(n2)-c2cccc(c2)COC/1", "note": "[Pacritinib, 11-(2-pyrrolidin-1-yl-ethoxy)-14,19-dioxa-5,7,26-triaza-tetracyclo[19.3.1.1(2,6). 1(8,12)]heptacosa-1(25),2(26),3,5,8,10,12(27),16,21,23-decaene]", "values": [
      {"measurement": "IC50", "setting": "FLT3; IC50 (class), Pacritinib scale", "result": "< 25", "unit": "nM"},
      {"measurement": "IC50", "setting": "FLT3; [1]", "result": "< 50 nM and 14.8 nM"},
      {"measurement": "IC50", "setting": "FLT3 (ITD); IC50 (class), Pacritinib scale", "result": "< 25", "unit": "nM"},
      {"measurement": "IC50", "setting": "FLT3 (ITD); [1]", "result": 13.4, "unit": "nM"},
      {"measurement": "IC50", "setting": "FLT3 (D835Y); IC50 (class), Pacritinib scale", "result": "< 25", "unit": "nM"},
      {"measurement": "IC50", "setting": "FLT3 (D835Y); [1]", "result": 4.7, "unit": "nM"}
    ]}
  ]
}
